{
  "source": "patent US20120207861A1",
  "about": "“BIOCIDAL COMPOSITION AND METHOD FOR TREATING RECIRCULATING WATER SYSTEMS” (priority 2006, published 2012)",
  "format_in_all_cases": "cell-based",
  "details_in_all_cases": "Table 4; Chlorine 1 ppm",
  "key": {"[1]": {"test_system": "bacteria Alcaligenes, Chryseobacterium and Sphingomonas", "experiment": "Prevention secondary screen: bacterial plate counts"}, "[2]": {"test_system": "eight species of bacteria and four species of fungi typically found in swimming pool water", "experiment": "Prevention secondary screen: laboratory scale model of a swimming pool, water clarity and hydrogen peroxide loss"}, "[3]": {"test_system": "fungi Paecilomyces and Trichoderma", "experiment": "Prevention secondary screen: fungal plate counts"}},
  "data": [
    {"substance": "Chlorine", "values": [
      {"measurement": "Bacterial Counts at Clarity of 1.0 NTU or above", "setting": "[1]", "result": "6.4 × 10^4 CFU/ml"},
      {"measurement": "Number of Days of Clarity below 1.0 NTU", "setting": "[2]", "result": 23, "unit": "days"},
      {"measurement": "Fungal Counts at Clarity of 1.0 NTU or above", "setting": "[3]", "result": 0, "unit": "CFU/ml"}
    ]}
  ]
}
